Test results as given in patent US20240325398A1, “COMBINATION THERAPIES” (Infinity Pharmaceuticals, Inc., priority 2014, published 2024).

Columns and labels:
Assay in all cases: Combination study, ATPLite 72 h, dose matrix (Synergy Score, CI50)
Settings in all cases: combination with Compound 1
Farage = tested on: Farage
NCI-H929 = tested on: NCI-H929
KARPAS-422 = tested on: KARPAS-422
Jeko-1 = tested on: Jeko-1
SU-DHL-4-epst = tested on: SU-DHL-4-epst
HBL-1 = tested on: HBL-1
DOHH-2 = tested on: DOHH-2
RPMI-8226 = tested on: RPMI-8226

CC(C)C[C@H](NC(=O)[C@H](Cc1ccccc1)NC(=O)c1cnccn1)B(O)O [bortezomib, [(1R)-3-methyl-1-({(2S)-3-phenyl-2-[(pyrazin-2-ylcarbonyl)amino]propanoyl}amino)butyl]boronic acid]
A2 (A2=1 to <3): Synergy Score growth inhibition (KARPAS-422) | Synergy Score growth inhibition (HBL-1) | Synergy Score growth inhibition (DOHH-2)
A3 (A3=>3): Synergy Score growth inhibition (Farage) | Synergy Score growth inhibition (SU-DHL-4-epst)
A1 (A1=0.0001 to <1): Synergy Score inhibition (Farage) | Synergy Score growth inhibition (NCI-H929) | Synergy Score inhibition (NCI-H929) | Synergy Score inhibition (KARPAS-422) | Synergy Score growth inhibition (Jeko-1) | Synergy Score inhibition (Jeko-1) | Synergy Score inhibition (SU-DHL-4-epst) | Synergy Score inhibition (HBL-1) | Synergy Score inhibition (DOHH-2) | Synergy Score growth inhibition (RPMI-8226) | Synergy Score inhibition (RPMI-8226)
